Source: PubChem BioAssay AID1490 (National Center for Advancing Translational Sciences (NCATS), 2009)
This is a selection; strong and weak results do not stand in their true shares. Results filed as inconclusive are left out. Calls of active or inactive are those of the source. Calls follow the shape of the dose curve; as a rule, active = well fitted inhibition curve with a large enough effect; inconclusive = small, poorly fitted or top-dose-only effect, or another doubt; inactive = no such curve, though single readings can be large or run the other way.

molecular target: 4'-phosphopantetheinyl transferase ffp (Bacillus subtilis) (UniProt Q9F4F7); experiment: qHTS Assay for Inhibitors of Bacillus subtilis Sfp phosphopantetheinyl transferase (PPTase); details: Biochemical Sfp PPTase activity;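 also: the enzyme is Sfp with the accession as filed and its product quenches rhodamine fluorescence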
Potency is read from the fitted curve at half-maximal effect.

Compound	Potency
CC[n+]1c(/C=C/N(C)c2ccccc2)oc2ccc(Cl)cc21	active: 50.1 µM
CNCCCCCCCCSc1nc(C(C)C)ccc1C(=O)c1cccs1	active: 39.8 µM
